The subject of one assay is HSkMC. Briefly: cytotoxicity call (relative viability < 0.9). The settings on record: 10 µM.
For a further assay, the system named is HepG2. In words: cytotoxicity call (relative viability < 0.9). The settings on record: 10 µM.
The test system of a further assay is S. aureus RN4220. Briefly: growth inhibition call (relative growth <= 0.2). The settings on record: 50 µM.

For part of these data: Most of the hits are listed elsewhere, so they are rarer here than in the full data. The entries are a selection whose mix differs from that of the whole data set.

For `COc1cc(Br)c(C[N+]2(CCOCC[C@H]3CC[C@@H]4C[C@H]3C4(C)C)CCOCC2)cc1OC`, the cytotoxicity call with HSkMC and with HepG2 was “inactive” throughout. Besides, the growth inhibition call in the assay with S. aureus RN4220 was “active”.
For `COc1c2ccccc2nc2occc12`, the cytotoxicity call in the assay with HSkMC is “inactive”. Further, the cytotoxicity call in the assay with HepG2 was “active”. Further, the growth inhibition call with S. aureus RN4220 was “inactive”.
Take `c1ccc(-c2ccccn2)cc1`: the cytotoxicity call in the assay on HSkMC (human skeletal muscle cells) and with HepG2 was “inactive” in each case. In addition, the growth inhibition call with S. aureus RN4220 is “inactive”.

Source of the values: the antibiotic and cytotoxicity screens of Wong et al. (2023).
